Literature values, collected in patent publication US20140088058A1 (PARTHENOGEN SAGL, priority 2011, published 2014).

Conditions: in vivo

## hCG: human Chorionic Gonadotrophin, placental hormone with structure similar to LH
  half-life: ~72 h

## LH: Luteinising Hormone released by the pituitary gland
  half-life: about 2 hours
